Structures can show the parent of a compound that is named as a salt.
Assays:
[1] = in words; cited from earlier work
[2] = Solubility in water: water added by degrees until 0.1 g of compound fully dissolves; settings: 28° C.

Row | SMILES | Solubility in alcohol [1] | Solubility in water [1] | Water quantity for dissolving 0.1 g solute [2]
1 | O=C(O)C(O)C(O)C(=O)O.Oc1ccc2c(c1)[C@@]13CCCC[C@@]1(O)[C@@H](C2)N(CC1CCC1)CC3 [Butorphanol tartrate] | insoluble in alcohol | sparingly soluble in water | 
2 | COc1ccc2c(c1)[C@]13CCCC[C@@H]1[C@H](C2)N(C)CC3 [Dextromethorphan hydrobromide] |  |  | 4 mL

— patent publication US8557784B2, “Glycyrrhizinates of morphinan derivatives” (Standard Chem. & Pharm. Co., Ltd., priority 2011, dated 2013)
